Tested on: cellular NAD+ levels in CaLu-3 cells
Experiment: Quantification of cellular NAD+ (enzymatic cycling kit, normalised to protein)
Format: cell-based
Details: CaLu-3, after 2 h

O=C(/C=C/c1cccnc1)NCCCCC1CCN(C(=O)c2ccccc2)CC1 [FK866]
effect on cellular NAD levels (in words): no measurable effect

— PMC13408504, “Design, structure-based optimization and antiviral evaluation of potent inhibitors for the macrodomain Mac1 of SARS-CoV-2” (Nature Communications, 2026)
